Assay results from patent US20250127912A1, “COMPOSITIONS FOR DELIVERY OF POLYNUCLEOTIDES” (miRecule, Inc., priority 2021, published 2025).
Non-standard residues stand in square brackets, D forms with d. Groups on a side chain read outwards from the residue. Primed or numbered codes have the meaning given here. No end group written: not given here. Maleimide‑BranchedPEG1.5kda = maleimide-linked branched PEG of 1.5 kDa; PEG12′ = PEG12 polymer (polyethylene glycol, 12 units); PEG1000 = N-terminal 1 kDa PEG spacer; PEG5000 = N-terminal 5 kDa PEG spacer; PEG2000 = PEG polymer of 2000 Da

Assay: Precipitation/aggregation of Cetux-PEG4-Azide-DCBO-PEG5-M30m3 (DAR2) mixed with cationic peptides, hybrid polymers or cationic polymers
Details: peptide/hybrid polymer mixed in water with Cetux-PEG4-Azide-DCBO-PEG5-M30m3 (DAR2) at 1:1 or 1:2 -charge/+charge ratio; spun 15,000g 15 min; visual inspection and microscopy
For “RRRRRRRRRRRRC-[Maleimide-BranchedPEG3.9kda] (RRRRRRRRRRRRC([maleimide-branched PEG 3.9 kDa])) [PolyArg12Cbp3.9kDa]”, the “Precipitated or Aggregated” value was “N”. In the case of “RRRRRRRRRRRRC-[Maleimide-BranchedPEG1.5kda] (RRRRRRRRRRRRC([maleimide-branched PEG 1.5 kDa])) [PolyArg12Cbp1.5kDa]”, the “Precipitated or Aggregated” value is reported as “N”. For “[PEG5000]-RRRRRRRRRRRR (PEG5000-RRRRRRRRRRRR) [PEG5000DaPolyArg12]”, the “Precipitated or Aggregated” value was “N”. In the case of “[Maleimide-BranchedPEG1.5kda]-CRRRRRRRRRRRRC-[Maleimide-BranchedPEG1.5kda] ({Maleimide‑BranchedPEG1.5kda}-CRRRRRRRRRRRRC-{Maleimide‑BranchedPEG1.5kda}; not fully specified (residues 1, 14); printed as [Maleimide-BranchedPEG1.5kda]-CRRRRRRRRRRRRC-[Maleimide-BranchedPEG1.5kda]; cysteine pairing not given here) [CPolyArg12Cbp1.5kDa]”, the “Precipitated or Aggregated” value is reported as “N”. With [PEG12][PEG12]RRRRRRRRR [PEG24PolyArg9] the “Precipitated or Aggregated” value was “N”. For “[PEG12][PEG12]RRRRRRRRRRRRC (N-terminal PEG24; MOD_RES 1 N-terminal PEG24 spacer) [PEG24PolyArg12C]”, the “Precipitated or Aggregated” value was “N”. For “[PEG1000]-RRRRRRRRRRRR (PEG1000-RRRRRRRRRRRR) [PEG1000DaPolyArg12]”, the “Precipitated or Aggregated” value was “N”. With “[PEG12]RRRRRRRRRRRR (N-terminal PEG12; MOD_RES 1 N-terminal PEG12 spacer) [PEG12PolyArg12]” the “Precipitated or Aggregated” value was “N”. With “[PEG12]RRRRRRRRRRRRC (N-terminal PEG12; MOD_RES 1 N-terminal PEG12 spacer) [PEG12PolyArg12C]” the “Precipitated or Aggregated” value was “Y”. With “RRRRRRRRRRRRC-[Maleimide-PEG2000] (not fully specified (residue 13); printed as RRRRRRRRRRRRC-[Maleimide-PEG2000]) [PolyArg12C-PEG2000Da]” the “Precipitated or Aggregated” value was “N”. In the case of “[PEG12][PEG12]RRRRRRRRRRRR (N-terminal PEG24; MOD_RES 1 N-terminal PEG24 spacer) [PEP24PolyArg12]”, the “Precipitated or Aggregated” value is reported as “N”. For “RRRRRRRRRRRR-[NHS Ester-BranchedPEG2kda] [PolyArg12bp2kDa]”, the “Precipitated or Aggregated” value was “N”. For “[PEG12]RRRRRRRRRRRRRRR ([PEG12′]RRRRRRRRRRRRRRR) [PEG12PolyArg15]”, the “Precipitated or Aggregated” value was “Y”. With “RRRRRRRRRRRRC-[Maleimide-BranchedPEG16kda] (RRRRRRRRRRRRC([maleimide-branched PEG 16 kDa])) [PolyArg12Cbp16kDa]” the “Precipitated or Aggregated” value was “N”. In the case of “[PEG12]RdRdRdRdRdRdRdRdRd [PEG12PolyArg9d]”, the “Precipitated or Aggregated” value is reported as “N”. In the case of “RRRRRRRRRRRRC-[Maleimide-Dextran5k] (RRRRRRRRRRRRC([maleimide-dextran 5 kDa])) [PolyArg12C-Dextran5000Da]”, the “Precipitated or Aggregated” value is reported as “N”. With “[PEG12]RRRRRRRRRRRRRRRRRR ([PEG12′]RRRRRRRRRRRRRRRRRR) [PEG12PolyArg18]” the “Precipitated or Aggregated” value was “Y”. In the case of [PEG12]RRRRRR [PEG12PolyArg6], the “Precipitated or Aggregated” value is reported as “N”. With “RRRRRRRRRRRRC-[Maleimide-PEG5000] (not fully specified (residue 13); printed as RRRRRRRRRRRRC-[Maleimide-PEG5000]) [PolyArg12C-PEG5000Da]” the “Precipitated or Aggregated” value was “N”. With “[PEG2000]-RRRRRRRRRRRR (PEG2000-RRRRRRRRRRRR) [PEG2000DaPolyArg12]” the “Precipitated or Aggregated” value was “N”. In the case of “[PEG12]RdRdRdRdRdRdRdRdRdRdRdRd (RRRRRRRRRRRR; N-terminal PEG12; D-arginines; MOD_RES 1 N-terminal PEG12 spacer; MOD_RES 1..12 D-Arginine) [PEG12PolyArg12{d}]”, the “Precipitated or Aggregated” value is reported as “N”. In the case of “[PEG12]RRRRRRC (N-terminal PEG12; MOD_RES 1 N-terminal PEG12 spacer) [PEG12PolyArg6C]”, the “Precipitated or Aggregated” value is reported as “N”. In the case of “RRRRRRRRRRRRC-[Maleimide-BranchedPEG2kda] (RRRRRRRRRRRRC([maleimide-branched PEG 2 kDa])) [PolyArg12Cbp2kDa]”, the “Precipitated or Aggregated” value is reported as “N”.
